According to patent EP0216127B1, “6-Phenoxymethyl-4-hydroxytetrahydropyran-2-ones, process for their preparation, their use as medicines, pharmaceutical compositions and intermediates” (HOECHST AKTIENGESELLSCHAFT, priority 1985, dated 1987):
Like-named read-outs stand apart in the source and are kept apart here.

Amino acid sequences for entries named in this document (tags omitted).
UniProt P51639, whole entry: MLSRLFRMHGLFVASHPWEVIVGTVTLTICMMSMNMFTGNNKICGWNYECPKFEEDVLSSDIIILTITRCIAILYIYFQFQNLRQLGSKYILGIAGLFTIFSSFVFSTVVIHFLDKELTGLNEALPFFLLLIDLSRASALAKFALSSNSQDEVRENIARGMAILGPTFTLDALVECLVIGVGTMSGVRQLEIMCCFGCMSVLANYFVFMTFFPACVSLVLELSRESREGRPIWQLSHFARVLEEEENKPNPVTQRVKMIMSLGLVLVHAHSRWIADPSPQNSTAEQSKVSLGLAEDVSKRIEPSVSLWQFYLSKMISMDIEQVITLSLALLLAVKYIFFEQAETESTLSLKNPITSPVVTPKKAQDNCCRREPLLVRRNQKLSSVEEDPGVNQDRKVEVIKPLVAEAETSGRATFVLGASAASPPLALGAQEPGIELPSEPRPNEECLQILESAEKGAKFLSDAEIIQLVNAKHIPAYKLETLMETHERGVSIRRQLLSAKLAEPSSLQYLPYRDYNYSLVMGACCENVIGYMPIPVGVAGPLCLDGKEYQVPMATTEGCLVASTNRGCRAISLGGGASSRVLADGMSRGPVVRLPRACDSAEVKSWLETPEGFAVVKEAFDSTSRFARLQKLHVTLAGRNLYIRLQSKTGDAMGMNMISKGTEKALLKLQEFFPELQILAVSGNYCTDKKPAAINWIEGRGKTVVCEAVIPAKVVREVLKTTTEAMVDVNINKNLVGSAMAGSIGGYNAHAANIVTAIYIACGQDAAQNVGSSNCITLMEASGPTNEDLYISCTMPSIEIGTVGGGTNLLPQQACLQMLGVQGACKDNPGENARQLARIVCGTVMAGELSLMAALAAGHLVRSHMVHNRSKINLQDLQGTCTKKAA
UniProt Q01237, whole entry: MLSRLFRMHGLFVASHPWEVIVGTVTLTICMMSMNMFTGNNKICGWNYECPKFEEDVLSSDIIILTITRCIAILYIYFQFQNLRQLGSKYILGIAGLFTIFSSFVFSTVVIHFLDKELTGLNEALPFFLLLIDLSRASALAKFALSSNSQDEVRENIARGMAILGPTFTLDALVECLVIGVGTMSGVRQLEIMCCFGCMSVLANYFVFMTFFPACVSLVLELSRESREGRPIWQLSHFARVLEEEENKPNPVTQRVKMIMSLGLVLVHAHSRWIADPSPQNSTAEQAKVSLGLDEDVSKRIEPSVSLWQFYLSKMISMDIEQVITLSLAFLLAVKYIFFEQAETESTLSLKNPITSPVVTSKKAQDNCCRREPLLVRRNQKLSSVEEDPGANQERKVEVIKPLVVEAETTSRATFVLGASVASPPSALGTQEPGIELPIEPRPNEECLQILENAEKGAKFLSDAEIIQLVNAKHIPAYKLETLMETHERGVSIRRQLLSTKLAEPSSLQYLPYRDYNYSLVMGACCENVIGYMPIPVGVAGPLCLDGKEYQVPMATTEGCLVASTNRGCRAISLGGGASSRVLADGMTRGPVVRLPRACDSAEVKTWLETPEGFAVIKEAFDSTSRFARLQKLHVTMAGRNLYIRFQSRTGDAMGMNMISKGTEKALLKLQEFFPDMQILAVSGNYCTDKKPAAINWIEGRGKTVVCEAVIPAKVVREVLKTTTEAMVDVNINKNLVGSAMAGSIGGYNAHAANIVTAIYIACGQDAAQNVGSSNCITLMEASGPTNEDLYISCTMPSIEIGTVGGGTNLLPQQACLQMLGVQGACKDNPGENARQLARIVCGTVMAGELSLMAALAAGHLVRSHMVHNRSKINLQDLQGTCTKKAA

Key:
[1] = biological target: HMG-CoA-Reduktase (Rattus norvegicus, UniProt P51639); assay: Inhibition of HMG-CoA reductase activity in solubilised enzyme preparations from rat liver microsomes; conditions: read-out: IC50-Wert M, solubilised enzyme from liver microsomes of cholestyramine-induced rats, substrate (S,R)14C-HMG-CoA, mean of 3 parallel samples
From the text: 1) Inhibierung der HMG-CoA-Reduktase-Aktivität an solubilisierten Enzympräparationen aus Ratten-Lebermikrosomen
Die HMG-CoA-Reduktase-Aktivität wurde an solubilisierten Enzympräparationen aus Lebermikrosomen von Ratten gemessen, die nach Umstellung im Tag-Nacht-Rhythmus mit Cholestyramin (@Cuemid) induziert wurden. Als Substrat diente (S,R)^14C-HMG-CoA, die Konzentration von NADPH wurde während der Inkubation durch ein regenerierendes System aufrechterhalten. Die Abtrennung von ^14C-Me- valonat von Substrat und anderen Produkten (z.B. ^14C-HMG) erfolgte über Säulenelution, wobei das Elutionsprofil jeder Einzelprobe ermittelt wurde. Auf die ständige Mitführung von ^3H-Mevalonat wurde verzichtet, weil es bei der Bestimmung um die Relativangabe der Hemmwirkung handelt. In eine Versuchsreihe wurden jeweils die enzymfreie Kontrolle, der enzymhaltige Normalansatz (= 100%) und solche mit Präparatezusätzen zusammen behandelt. Jeder Einzelwert wurde als Mittelwert aus 3 Parallelproben gebildet. Die Signifikanz der Mittelwertsunterschiede zwischen präparatefreien und präparatehaltigen Proben wurde nach dem t-Test beurteilt. Nach der oben beschriebenen Methode wurden von den erfindungsgemäßen Verbindungen z.B. folgende Hemmwerte auf die HMG-CoA-Reduktase ermittelt (IC50-Wert M = molare Konzentration der Verbindung, die für eine 50%ige Hemmung erforderlich ist): […]

[2] = biological target: HMG-CoA-Reduktase (Mus musculus, UniProt Q01237); assay: Suppression or inhibition of HMG-CoA reductase in cell cultures of fibroblasts (L cells); conditions: 3 h incubation of confluent L-Zellen in lipoprotein-free medium, molar concentration for 50% inhibition of HMG-CoA reductase activity
From the text: 2. Supprimierung bzw. Inhibierung der HMG-CoA-Reduktase in Zellkulturen von Fibroblasten
Monolayers von Fibroblasten (L-Zellen) in lipoproteinfreiem Nährmedium wurden mit entsprechenden Konzentrationen der Prüfsubstanzen eine bestimmte Zeit (z.B. 3 Stunden) inkubiert, dann wurde die HMG-CoA-Reduktaseaktivität der Zellen, modifiziert nach Chang et al. (J. Biol. Chem. 256, 6174 (1981) bestimmt. Dazu wurden die Zellextrakte mit D, L [^3H]-HMG-CoA inkubiert und das unter der Einwirkung der vorhandenen HMG-CoA-Reduktaseaktivität aus den Zellen gebildete Produkt [3H]-Mevalonat nach Cyclisierung zu [^3H]-Mevalonolacton dünnschichtchromatographisch vom Ausgangsprodukt getrennt und unter Verwendung eines internen Standards von ^14C-Mevalonat die Menge des in der Zeiteinheit gebildeten [3H]-Mevalonats, bezogen auf Zellproteinmenge bestimmt. Die unter Zusatz einer bestimmten Konzentration eines Prüfpräparates gefundene HMG-CoA-Reduktaseaktivität der Zellkultur wurde prozentual auf jene einer gleichbehandelten ohne Prüfpräparat, jedoch gleicher Lösungsmittelkonzentration, bezogen.
Unter der Bedingung einer dreistündigen Inkubationszeit konfluenter L-Zellen im lipoproteinfreien Nährmedium mit den untersuchten Verbindungen wurden folgende für eine 50%ige Hemmung der HMG-CoA-Reduktaseaktivität (ICso) erforderliche molare Konzentration der Prüfpräparate ermittelt: […]

SMILES: Cc1cc(C)c(OC[C@@H]2C[C@@H](O)CC(=O)O2)c(C(c2ccc(F)cc2)c2cccc(C(F)(F)F)c2)c1 (some centres unmarked)
- IC50 ([1]; tested form: free lactone): 90 nM
- IC50 ([2]; tested form: free lactone): 80 µM

SMILES: Cc1cc(C)c(OC[C@@H]2C[C@@H](O)CC(=O)O2)c(CCCOc2ccc(F)cc2)c1
- IC50 [1]: 360 nM
- IC50 [2]: 200 µM

SMILES: Cc1cc(C)c(OC[C@@H]2C[C@@H](O)CC(=O)O2)c(C(c2ccc(F)cc2)C2CCCCC2)c1 (some centres unmarked)
- IC50 ([1]; tested form: free lactone): 95 nM
